Test results taken from patent publication US5444055A, “17-hydroxyiminomethyl-5-β, 14 β-androstane derivatives active on the cardiovascular system, processes for their preparation and pharmaceutical compositions containing same” (Sigma-Tau Industrie Farmaceutiche Riunite S.p.A., priority 1992, dated 1995).

How the values were obtained:
Na^+,K^+ -ATPase [1] = target: T1, Na^+,K^+ -ATPase (Homo sapiens, UniProt P05023); test: displacement of specific ^3 H-ouabain binding from purified Na^+,K^+ -ATPase receptor
Na^+,K^+ -ATPase [2] = target: T1, Na^+,K^+ -ATPase; test: inhibition of the activity of purified Na^+,K^+ -ATPase (hydrolysis of ^32 P-ATP); type: biochemical; conditions: ^32 P-ATP hydrolysis

SMILES	Binding ^3 H-Ouab. Displacement -log IC50 (Na^+,K^+ -ATPase [1])	Inhibitory Activity -log IC50 (Na^+,K^+ -ATPase [2])
C[C@]12CC[C@H](OCCN)C[C@H]1CC[C@@H]1[C@@H]2CC[C@]2(C)[C@@H](/C=N/O)CC[C@]12O	5.8	4.6
C[C@]12CC[C@H](OCCN3CCCC3)C[C@H]1CC[C@@H]1[C@@H]2CC[C@]2(C)[C@@H](/C=N/O)CC[C@]12O	5.9	4.6
C[C@]12CC[C@H](OCCCN3CCCC3)C[C@H]1CC[C@@H]1[C@@H]2CC[C@]2(C)[C@@H](/C=N/O)CC[C@]12O	5.7	4.5
C[C@]12CC[C@H](OCCCN)C[C@H]1CC[C@@H]1[C@@H]2CC[C@]2(C)[C@@H](/C=N/O)CC[C@]12O	6.0	4.6
